The values that follow are results of earlier work, collected in publication PMC11711049 (Cancer Science, 2024).

This series deals with cholangiocarcinoma with an FGFR2 gene fusion or other rearrangement. As to conditions: cholangiocarcinoma patients; cited from earlier work.

“And” between values parts separate entries of the source, which are not always exact repeats. Identical values can stand only once.

In the case of `C=CC(=O)N1CC[C@H](n2nc(C#Cc3cc(OC)cc(OC)c3)c3c(N)ncnc32)C1` [futibatinib], the “median OS” value is listed as 21.7 months; the “median PFS” value is on record as 9.0 months; the “response rate / ORR” value was 42% and 41.7%.
